{"source": "patent US20110268774A1", "about": "“PREPARATION OF STEM CELLS WITH REPROGRAMMED CELL SIGNALLING, A METHOD OF PRODUCING THE PREPARATION AND A METHOD OF USE THEREOF” (priority 2008, published 2011)", "origin": "cited, not measured here", "tested_on": "Wnt and Sonic hedgehog signaling pathways"}
{"compound": "CC1=C2C[C@H]3[C@@H](CC=C4C[C@@H](O)CC[C@@]43C)[C@@H]2CC[C@]12O[C@@H]1C[C@H](C)CN[C@H]1[C@H]2C", "note": "[Cyclopamine]", "values": [{"measurement": "CSC proliferation", "result": "Suppresses CSC"}]}
